Only a part is listed here, and it is no random draw. Results filed as inconclusive are left out. Calls of active or inactive are those of the source. The call rests on the fitted dose curve; in most records, active means well fitted activation curve with a large enough effect; inconclusive means small, poorly fitted or top-dose-only effect, or another doubt; inactive means no such curve, though single readings can be large or run the other way.

This assay in a line: qHTS of TDP-43 Inhibitors. Further: % of control where 0% means no effect; nearly all actives have a fitted effect of over 50% in size. The conditions noted are these: TDP-43 expressing yeast growth rescue, BacTiter-Glo, 24 h; at 46.1 µM (top of the series). For orientation: In qHTS, concentration-response curves come from the screen itself.
Regarding `CCC(=O)N(c1ccccc1)C1(COC)CCN(CCc2cccs2)CC1`, the growth rescue (activation) is inactive: 20.6%. In the case of `CCC(=O)N(c1ccccc1)C1(COC)CCN(CCn2nnn(CC)c2=O)CC1` it was inactive: 18.8%.

(Values after PubChem BioAssay AID652104 (National Center for Advancing Translational Sciences (NCATS), 2013).)
